Data on three molecules can be found in PMC12423841 (ACS Omega, 2025).

The data set deals with VSV pseudotyped with the SARS-CoV-2 Wuhan-Hu-1 S. To be noted: VeroE6 cells; VSV pseudotyped with Wuhan-Hu-1 S.

`CCCCCCCCc1ccc(CCC(N)(CO)CO)cc1` [fingolimod]: the “therapeutic window (CC50/EC50)” value turned out to be 2.64 ± 2.69.
In the case of `C=C1CC[C@H](O)C/C1=C/C=C1\CCC[C@]2(C)[C@@H]([C@H](C)CCCC(C)(C)O)CC[C@@H]12` [calcifediol] it was 3.34 ± 1.59; in that of `CC(C)c1c(CN(C)C(C)Cc2ccccc2)n(C)n(-c2ccccc2)c1=O` (stereo not drawn) [famprofazone], 12.95 ± 6.88.
